The values below are quoted from earlier work in PMC8679591, “FAPI-74 PET/CT Using Either ^18F-AlF or Cold-Kit ^68Ga Labeling: Biodistribution, Radiation Dosimetry, and Tumor Delineation in Lung Cancer Patients” (Journal of Nuclear Medicine, 2021).

The conditions of the data set: in vivo.

Take `OC[C@H]1OC(O)[C@H]([18F])[C@@H](O)[C@@H]1O` (stereo partly shown) [^18F-FDG]: the Effective dose was 0.020 mSv/MBq.
